Measured values from PubChem BioAssay AID760 (NMMLSC, 2007).
This is a selection; strong and weak results do not stand in their true shares. Activity calls are given as the source filed them.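 The calls were made as follows: active = GTP binding activity at least 20 points away from 100%, either lowered or raised; inconclusive = signal likely due to the compound's own green fluorescence; inactive = the rest.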

Each molecule was assayed against Ras-related protein Rab-2A (Canis lupus familiaris) (UniProt P61105) (assay: modulators of GTP binding to Rab2A wildtype, primary screen, biochemical, dog, bead-based flow cytometry, multiplex (AID 760;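 also: 0% = beads with excess unlabeled GTP and 100% = no-compound control corrected for plate trend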)). Settings: GST-Rab2 wt beads, Bodipy-GTP binding, at 10 µM.

Compound	GTP binding activity
CN(C)c1ccc(C(=O)NCC2(N3CCCCC3)CCCCC2)cc1	inactive: 95%
CCN1CCC(Nc2cccc(F)c2)CC1	inactive: 100%
Fc1ccccc1NC1CCN(Cc2ccccc2)CC1	inactive: 104%
COc1cc(OC)cc(C(=O)NCC2(N3CCOCC3)CCCCC2)c1	inactive: 92%
CC(C)(C)OC(=O)N1CCC(Nc2ccccc2)CC1	inactive: 100%
CCOc1ncccc1C(=O)NCC1(N2CCOCC2)CCCCC1	inactive: 101%
O=C(OC1CN2CCC1CC2)C1c2ccccc2C=Cc2ccccc21 (centres undefined)	inactive: 96%
N/C(=N\O)c1c(N)no[n+]1[O-]	inactive: 101%
COc1ccc(C(=O)NCC2(N3CCOCC3)CCCCC2)cc1OC	inactive: 99%
c1ccc(CN2CCC(Nc3ccccc3)CC2)cc1	inactive: 97%
N#Cc1ccc(C(=O)NCC2(N3CCCCC3)CCCCC2)cc1	inactive: 101%
COc1ccc(NC2CCN(C(=O)OC(C)(C)C)CC2)cc1	inactive: 98%
CN1CCN(CCOC(=O)C(O)(c2ccccc2)c2ccccc2)CC1	inactive: 101%
O=C(NCC1(N2CCOCC2)CCCCC1)c1cc(=O)[nH]c2ccccc12	inactive: 100%
O=C(NCC1(N2CCCCC2)CCCCC1)c1cccc([N+](=O)[O-])c1	inactive: 100%
N#CC1(Nc2ccccc2)CCN(CCc2ccccc2)CC1	inactive: 106%
CN(C)c1cccc(C(=O)NCC2(N3CCCCC3)CCCCC2)c1	inactive: 98%
COc1ccc(CN(CCCl)CCCl)cc1Cl	inactive: 96%
CC(C)c1ccc(NC2CCN(C(=O)OC(C)(C)C)CC2)cc1	inactive: 95%
CCOC(=O)N1CCC(Nc2ccc(OC)cc2)CC1	inactive: 99%
O=C(OC1CN2CCC1CC2)C1c2ccccc2Oc2ccccc21 (centres undefined)	inactive: 99%
O=C(NCC1(N2CCOCC2)CCCCC1)c1cc2ccccc2o1	inactive: 101%
COc1ccc(C(=O)NCC2(N3CCCCC3)CCCCC2)c(OC)c1OC	inactive: 98%
COc1ccc(NC2CCN(CCc3ccccc3)CC2)c(OC)c1	inactive: 98%
